Drawing on patent US5424205A, “Amyloidin protease and uses thereof” (Athena Neurosciences, Inc., priority 1993, dated 1995), this text covers % Control Activity (cleavage of APP592-601) (% control activity) for one substance.

The assay has as its target human amyloidin protease (human).

In the case of “aprotinin, the bovine Kunitz trypsin inhibitor (from UniProt P00974)”, the % Control Activity (cleavage of APP592-601) (% control activity) is 102.
